This is an account of results in PubChem BioAssay AID652106 (National Center for Advancing Translational Sciences (NCATS), 2013).

The entries are a selection whose mix differs from that of the whole data set. Some salts and complexes are drawn in separate pieces, as the source files them; their charges need not balance. Activity calls are given as the source filed them. Calls follow the shape of the dose curve; as a rule, active = well fitted activation curve with a large enough effect; inconclusive = small, poorly fitted or top-dose-only effect; inactive = no such curve, though single readings can be large or run the other way.

The assay can be described thus: qHTS of alpha-syn Inhibitors. Also: % of control where 0% means no effect; nearly all actives have a fitted effect of over 65% in size. Conditions: Yeast expressing alpha-synuclein, BacTiter-Glo, 24 h; at 46.1 µM (top of the series) unless noted. The text has this:
The goal of this project is to identify new chemical probes capable of reversing the toxicity associated with the Parkinson disease-related protein, alpha-synuclein. Compounds will be selected on their ability to restore growth in yeast cells expressing toxic levels of alpha-synuclein. These compounds will provide a complementary approach to deciphering the tangled mechanisms of toxicity and protection that we have uncovered through genome-wide genetic screens and are beginning to uncover in a large-scale proteomics analysis with mass spectroscopy. To this end, a miniaturized assay was developed to be screened against the Molecular Libraries Small Molecule Repository (MLSMR) to discover alpha-synuclein inhibitors. Please note that in the set-up this yeast-based assay compounds that inhibit as alpha-syn, have a read-out as activators. NIH Chemical Genomics Center [NCGC] NIH Molecular Libraries Probe Centers Network [MLPCN] MLPCN Grant: NS060957 Assay Submitter (PI): Susan Lindquist, Whitehead Institute/MIT
Dispense 2.5 microL yeast galactose medium per 1536-well plate, pin compound, dispense 2.5 microL alpha-synuclein expressing yeast in galactose medium at OD600=0.02 (pregrown in raffinose medium to mid-log phase) per well, incubate for 24 hr at 30 deg C, and cell growth will be measured using 5 microL of Bactiter/Glo reagent to entire plate and read using Luminescence Protocol in ViewLux.
Background: In qHTS, concentration-response curves come from the screen itself.
As to `COc1cc(C(=O)NCC2(N3CCOCC3)CCCCC2)cc(OC)c1C`, the growth rescue (activation) was inactive: -0.495%.

For the compound `CCCCn1nnnc1C(c1ccccc1)N1CCC(n2c(=O)[nH]c3ccccc32)CC1` (stereo unspecified), the growth rescue (activation) is inactive: 7.12%.

`CCCCn1nnnc1C(c1cccc(OC)c1OC)N1CCC(n2c(=O)[nH]c3ccccc32)CC1` (stereo unspecified): the growth rescue (activation) was inactive: -4.43%.

For the compound `O=c1[nH]c2ccccc2n1C1CCN(C(c2cccs2)c2nnnn2C2CCCC2)CC1` (stereo unspecified), the growth rescue (activation) was inactive: 0.462%.

On to `O=C(O)c1cccc(Nc2c([N+](=O)[O-])cc([N+](=O)[O-])cc2[N+](=O)[O-])c1`, for which the growth rescue (activation) is inactive: 15.6%.

For the compound `O=C(OC1CN2CCC1CC2)C1c2ccccc2C=Cc2ccccc21` (stereo unspecified), the growth rescue (activation) is inactive: -4.43%.

For `CCc1cc(C(=O)NCC2(N3CCCCC3)CCCCC2)sc1C`, the growth rescue (activation) is inactive: 0.52%.

Consider `N/C(=N\O)c1c(N)no[n+]1[O-]`, for which the growth rescue (activation) was inactive: -7.11%.

Regarding `COc1cccc(C(c2nnnn2C(C)(C)C)N2CCC(n3c(=O)[nH]c4ccccc43)CC2)c1OC` (stereo unspecified), the growth rescue (activation) is inactive: 1.47%.

As for `CCOC(=O)N1CCC(Nc2ccc(C)cc2)CC1`, the growth rescue (activation) was inactive: -7.07%.

Take `CCCCn1nnnc1C(c1ccnc2ccccc12)N1CCC(n2c(=O)[nH]c3ccccc32)CC1` (stereo unspecified): the growth rescue (activation) was inactive: 0.319%.

Turning to `CCC(c1nnnn1C(C)(C)C)N1CCC(n2c(=O)[nH]c3ccccc32)CC1` (stereo unspecified), the growth rescue (activation) was inactive: 0.993%.

For the compound `O=C(NCC1(N2CCOCC2)CCCCC1)c1cc(F)c(F)cc1Cl`, the growth rescue (activation) was inactive: -1.5%.

Consider `COc1cc(OC)c(C(=O)NCC2(N(C)C)CCCCC2)cc1OC`, for which the growth rescue (activation) is inactive: -4.02%.

For `CN(C)c1cccc(C(=O)NCC2(N3CCCCC3)CCCCC2)c1`, the growth rescue (activation) was inactive: -0.0272%.

With `O=[N+]([O-])c1cc([N+](=O)[O-])c(OC2CCCCC2O)c([N+](=O)[O-])c1` (stereo unspecified), the growth rescue (activation) is inactive: 7.83%.

As for `COc1ccc(CN(CCCl)CCCl)cc1Cl`, the growth rescue (activation) was inactive: 2.28%.

Take `CCCCn1nnnc1C(c1ccccc1OC(F)(F)F)N1CCC(n2c(=O)[nH]c3ccccc32)CC1` (stereo unspecified): the growth rescue (activation) is inactive: 11.5%.

As to `CC(C)c1ccc(NC2CCN(C(=O)OC(C)(C)C)CC2)cc1`, the growth rescue (activation) was inactive: 5%.

In the case of `CCCOc1ccc(C(=O)NCC2(N(C)C)CCCCC2)cc1OC`, the growth rescue (activation) was inactive: -0.129%.

With `O=C(NCC1(N2CCOCC2)CCCCC1)c1ccccc1Br`, the growth rescue (activation) is inactive: 4.68%.

Regarding `Cc1ccc(C(=O)NCC2(N(C)C)CCCCC2)o1`, the growth rescue (activation) is inactive: -1.77%.

Regarding `COc1ccc(C(c2nnnn2C2CCCC2)N2CCC(n3c(=O)[nH]c4ccccc43)CC2)cc1` (stereo unspecified), the growth rescue (activation) is inactive: 5.32%.

As for `O=[N+]([O-])c1cc([N+](=O)[O-])c(Nc2ccc(Cl)cc2)c([N+](=O)[O-])c1`, the growth rescue (activation) was inactive: -36.7%.

Consider `O=C(NCC1(N2CCCCC2)CCCCC1)c1cncc(Br)c1`, for which the growth rescue (activation) was inactive: -3.76%.

Take `COc1ccc2c(c1O)-c1c(O)c(OC)cc3c1[C@H](C2)[N+](C)(C)CC3.O=[N+]([O-])c1cc([N+](=O)[O-])c([O-])c([N+](=O)[O-])c1[O-]`: the growth rescue (activation) is inactive: -2.26%.

For the compound `CN1CCC(Nc2cccc(F)c2)CC1`, the growth rescue (activation) is inactive: 2.52%.

Regarding `O=C(OC1CN2CCC1CC2)c1ccc([N+](=O)[O-])cc1` (stereo unspecified), the growth rescue (activation) is inactive: 10.5%.

In the case of `CCOc1ccc(C(=O)NCC2(N3CCOCC3)CCCCC2)cc1`, the growth rescue (activation) is inactive: 1.37%.

In the case of `O=C(NCC1(N2CCCCC2)CCCCC1)c1cccc([N+](=O)[O-])c1`, the growth rescue (activation) was inactive: -5.06%.

For the compound `CSc1ccc(C(=O)NCC2(N3CCOCC3)CCCCC2)cc1`, the growth rescue (activation) is inactive: -5.27%.

Consider `N#CC1(Nc2ccccc2)CCN(CCc2ccccc2)CC1`, for which the growth rescue (activation) is inactive: -7.97%.

`O=c1[nH]c2ccccc2n1C1CCN(C(c2ccccc2OC(F)(F)F)c2nnnn2C2CCCC2)CC1` (stereo unspecified): the growth rescue (activation) was inactive: 16.3%.

Consider `CCN1CCC(Nc2ccc(Cl)cc2)CC1`, for which the growth rescue (activation) is inactive: 3.05%.

Turning to `O=C(NCC1(N2CCCCC2)CCCCC1)c1ccc(OC(F)F)cc1`, the growth rescue (activation) is inactive: 6.33%.

Take `CCCCn1nnnc1C(c1cccc2ccccc12)N1CCC(n2c(=O)[nH]c3ccccc32)CC1` (stereo unspecified): the growth rescue (activation) is inactive: 1.64%.

As for `COc1ccc(NC2CCN(C(=O)OC(C)(C)C)CC2)cc1`, the growth rescue (activation) is inactive: 0.0226%.

For `CC(C)c1ccc(C(=O)NCC2(N3CCOCC3)CCCCC2)cc1`, the growth rescue (activation) is inactive: -11.6%.

For the compound `CN1CCN(CCOC(=O)C(O)(c2ccccc2)c2ccccc2)CC1`, the growth rescue (activation) is inactive: 3.79%.

On to `O=C(NCC1(N2CCOCC2)CCCCC1)c1cc(=O)[nH]c2ccccc12`, for which the growth rescue (activation) is inactive: 3.19%.

Consider `COc1cc(C(=O)NCC2(N3CCCCC3)CCCCC2)ccc1OC(F)F`, for which the growth rescue (activation) was inactive: -0.351%.

For the compound `O=C(NCC1(N2CCCCC2)CCCCC1)c1cccc(C(F)(F)F)c1`, the growth rescue (activation) was inactive: -8.54%.

Consider `O=[N+]([O-])c1cc([N+](=O)[O-])c(NCC2CCS(=O)(=O)C2)c([N+](=O)[O-])c1` (stereo unspecified), for which the growth rescue (activation) is inactive: 1.67%.

On to `CCOC(=O)N1CCC(Nc2ccc(F)cc2)CC1`, for which the growth rescue (activation) is inactive: -3.67%.

Turning to `COc1ccc(NC2CCN(CCc3ccccc3)CC2)c(OC)c1`, the growth rescue (activation) was inactive: 2.87%.

As for `O=C(NCC1(N2CCCCC2)CCCCC1)c1ccc(F)cc1`, the growth rescue (activation) was inactive: 23.9%.
